The source of these data is PubChem BioAssay AID2355 (The Scripps Research Institute Molecular Screening Center, 2010).

Sequences of proteins named here, by UniProt entry; tags and fusion partners are left off.
UniProt P62136, whole entry, looked up: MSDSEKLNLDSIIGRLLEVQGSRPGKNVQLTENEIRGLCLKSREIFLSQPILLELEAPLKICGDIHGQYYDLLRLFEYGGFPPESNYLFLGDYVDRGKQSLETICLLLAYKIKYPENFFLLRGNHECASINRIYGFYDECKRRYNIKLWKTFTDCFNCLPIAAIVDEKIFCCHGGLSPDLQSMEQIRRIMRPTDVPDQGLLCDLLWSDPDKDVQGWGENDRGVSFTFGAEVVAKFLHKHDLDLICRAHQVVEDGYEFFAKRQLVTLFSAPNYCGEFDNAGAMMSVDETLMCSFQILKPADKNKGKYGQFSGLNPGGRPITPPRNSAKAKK

Only a part is listed here, and it is no random draw. Active and inactive are the calls of the source. No stated cut-off is given here; in the data, active means inhibition above about 16%; inactive means the rest.

The experiment deals with Serine/threonine-protein phosphatase PP1-alpha catalytic subunit (Homo sapiens) (UniProt P62136). Briefly: PP1 phosphatase inhibitors, counter-screen for PP5 inhibitor project, biochemical, fluorescence, triplicate (AID 2355). Particulars: PP1 enzyme, fluorescent phosphatase substrate; at 6.7 µM; hits give high values. A general note: The purpose of a counterscreen is to sort out artefacts and off-target activity.

Turning to `CN(C(=O)Cc1ccc(Cl)c(Cl)c1)[C@H]1CCCC[C@H]1N1CCCC1`, the inhibition (in general, the change of the read-out against control, counted positive when it falls) is inactive: 1.26%.
